Patent publication US9822115B2, “Nitrogen containing compounds and their use as antibacterial agents” (WOCKHARDT LIMITED, priority 2014, dated 2017)

Tested on: K. pneumoniae H521 (KPC, SHV, TEM)
Experiment: Antibacterial activity, MIC by agar dilution (CLSI)
Format: cell-based
Conditions: Table 2
Description: The biological activity of representative compounds according to the invention against various bacterial strains was investigated. In a typical study, overnight grown bacterial cultures were diluted appropriately and inoculated on the agar media containing doubling dilutions of the test compounds. Observations for growth or no growth was performed after 16-20 hours of incubation at 35±2° C. in the ambient air. The overall procedure was performed as per Clinical and Laboratory Standards Institute (CLSI) recommendations, (Clinical and Laboratory Standards Institute (CLSI), Performance Standards for Antimicrobial Susceptibility Testing, 20th Informational Supplement, M07-A9, Volume 32, No. 2, 2012). Molten Mueller Hinton Agar (BD, USA) containing serial dilutions of each antibacterial agent were poured on to the plates and allowed to solidify. […]
The strains selected for study included E. coli NCTC 13353 producing CTX-M15 and OXA-1 beta-lactamase enzymes; K. pneumoniae H521 producing KPC, SHV, TEM beta-lactamase enzymes; and K. pneumoniae S48 producing NDM, SHV, TEM beta-lactamase enzymes. The activities are expressed as Minimum Inhibitory Concentrations (MICs) (mcg/ml).

sodium salt of (2S,5R)-succinic acid tert-butyl ester 4-{2-oxo-2-[N′-(7-oxo-6-sulphooxy-1,6-diaza-bicyclo[3.2.1]octane-2-carbonyl)-hydrazino]ethyl}-phenyl ester [Example 27]
MIC: 16 µg/mL
